# For part of these data: Shown are results outside the selection of strong results, which stands elsewhere. How the calls were made is not given here. The entries are a selection whose mix differs from that of the whole data set.
# Protein sequences, listed by entry. Tags and fused reporters are not part of them. Lines headed by an entry give the natural chain unless they say otherwise; changes in a name come on top.
# UniProt Q05513: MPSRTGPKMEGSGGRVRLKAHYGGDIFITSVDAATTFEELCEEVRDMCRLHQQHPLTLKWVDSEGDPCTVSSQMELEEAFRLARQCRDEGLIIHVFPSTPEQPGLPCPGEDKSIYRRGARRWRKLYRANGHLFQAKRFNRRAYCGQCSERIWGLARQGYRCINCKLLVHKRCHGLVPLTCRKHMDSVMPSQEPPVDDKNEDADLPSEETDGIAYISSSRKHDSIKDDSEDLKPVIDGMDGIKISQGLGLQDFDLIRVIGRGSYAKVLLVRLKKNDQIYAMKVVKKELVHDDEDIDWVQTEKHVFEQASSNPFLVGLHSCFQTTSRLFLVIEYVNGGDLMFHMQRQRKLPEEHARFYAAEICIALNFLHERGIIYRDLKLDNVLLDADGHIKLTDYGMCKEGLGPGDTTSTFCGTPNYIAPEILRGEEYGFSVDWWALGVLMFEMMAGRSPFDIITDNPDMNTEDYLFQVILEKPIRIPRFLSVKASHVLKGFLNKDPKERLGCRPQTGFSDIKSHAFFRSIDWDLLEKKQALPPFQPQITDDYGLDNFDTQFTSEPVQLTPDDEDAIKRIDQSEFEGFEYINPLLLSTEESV
# UniProt P06493, whole entry, looked up: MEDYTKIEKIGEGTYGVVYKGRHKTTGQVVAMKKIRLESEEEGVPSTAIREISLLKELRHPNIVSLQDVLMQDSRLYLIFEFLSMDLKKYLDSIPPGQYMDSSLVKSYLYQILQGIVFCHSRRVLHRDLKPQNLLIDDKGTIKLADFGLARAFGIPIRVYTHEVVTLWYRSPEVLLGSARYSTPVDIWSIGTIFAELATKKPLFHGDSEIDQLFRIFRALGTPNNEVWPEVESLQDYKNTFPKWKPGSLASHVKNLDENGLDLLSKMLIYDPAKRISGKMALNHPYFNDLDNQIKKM
# UniProt P67870, whole entry, looked up: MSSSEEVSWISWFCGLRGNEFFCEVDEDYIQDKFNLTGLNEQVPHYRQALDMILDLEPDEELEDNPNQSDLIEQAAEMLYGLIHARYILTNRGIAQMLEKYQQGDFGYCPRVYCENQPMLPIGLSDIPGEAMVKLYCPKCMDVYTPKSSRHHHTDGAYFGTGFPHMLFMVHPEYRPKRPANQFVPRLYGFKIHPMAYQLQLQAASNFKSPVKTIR
# UniProt P68400, whole entry, looked up: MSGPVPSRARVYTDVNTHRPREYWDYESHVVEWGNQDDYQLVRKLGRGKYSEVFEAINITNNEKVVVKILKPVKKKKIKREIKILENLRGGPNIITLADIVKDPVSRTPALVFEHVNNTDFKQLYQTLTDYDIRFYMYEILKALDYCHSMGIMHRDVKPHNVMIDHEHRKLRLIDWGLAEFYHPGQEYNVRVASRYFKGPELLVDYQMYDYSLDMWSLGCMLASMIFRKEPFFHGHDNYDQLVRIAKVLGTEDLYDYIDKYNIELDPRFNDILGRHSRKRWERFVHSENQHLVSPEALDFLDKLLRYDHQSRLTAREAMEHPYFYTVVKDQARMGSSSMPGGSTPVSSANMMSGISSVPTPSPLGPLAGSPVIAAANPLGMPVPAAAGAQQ
# UniProt Q16566: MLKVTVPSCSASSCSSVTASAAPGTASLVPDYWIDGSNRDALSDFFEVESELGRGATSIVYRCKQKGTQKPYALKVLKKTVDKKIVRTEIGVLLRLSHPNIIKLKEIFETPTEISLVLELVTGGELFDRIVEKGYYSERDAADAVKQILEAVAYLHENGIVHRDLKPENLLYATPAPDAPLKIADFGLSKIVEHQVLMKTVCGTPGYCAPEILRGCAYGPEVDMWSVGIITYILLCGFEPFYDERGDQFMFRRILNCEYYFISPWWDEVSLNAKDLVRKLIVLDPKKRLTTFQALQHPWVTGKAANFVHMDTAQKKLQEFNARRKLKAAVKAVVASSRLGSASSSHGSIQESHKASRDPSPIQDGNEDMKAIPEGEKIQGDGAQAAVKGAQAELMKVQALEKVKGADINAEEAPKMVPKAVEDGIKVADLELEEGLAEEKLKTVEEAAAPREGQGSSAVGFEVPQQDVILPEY
# UniProt P49840: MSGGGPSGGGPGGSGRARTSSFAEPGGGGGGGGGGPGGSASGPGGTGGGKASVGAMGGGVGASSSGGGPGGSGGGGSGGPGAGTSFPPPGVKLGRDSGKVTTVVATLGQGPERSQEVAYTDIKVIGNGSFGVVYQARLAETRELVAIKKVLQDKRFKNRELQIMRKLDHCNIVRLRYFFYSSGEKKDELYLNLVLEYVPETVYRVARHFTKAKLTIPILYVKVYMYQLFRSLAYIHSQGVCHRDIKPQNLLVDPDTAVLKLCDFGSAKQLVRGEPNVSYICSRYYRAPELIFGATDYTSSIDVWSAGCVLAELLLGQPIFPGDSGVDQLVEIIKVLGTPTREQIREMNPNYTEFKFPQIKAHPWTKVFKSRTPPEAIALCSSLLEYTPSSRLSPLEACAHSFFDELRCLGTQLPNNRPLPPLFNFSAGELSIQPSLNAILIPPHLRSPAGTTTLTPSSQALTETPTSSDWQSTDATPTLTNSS
# UniProt P49841: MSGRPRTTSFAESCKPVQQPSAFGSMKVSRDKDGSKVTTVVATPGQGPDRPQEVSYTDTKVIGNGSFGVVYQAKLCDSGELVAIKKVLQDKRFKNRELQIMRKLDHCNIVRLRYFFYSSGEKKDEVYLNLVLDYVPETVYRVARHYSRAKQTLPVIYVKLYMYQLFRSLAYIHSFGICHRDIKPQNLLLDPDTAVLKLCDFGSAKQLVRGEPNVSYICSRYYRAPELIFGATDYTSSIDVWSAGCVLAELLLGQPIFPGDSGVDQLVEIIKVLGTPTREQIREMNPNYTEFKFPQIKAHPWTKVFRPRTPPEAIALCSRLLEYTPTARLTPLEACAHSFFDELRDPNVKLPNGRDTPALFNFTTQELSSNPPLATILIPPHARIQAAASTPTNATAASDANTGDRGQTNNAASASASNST
# UniProt Q04759: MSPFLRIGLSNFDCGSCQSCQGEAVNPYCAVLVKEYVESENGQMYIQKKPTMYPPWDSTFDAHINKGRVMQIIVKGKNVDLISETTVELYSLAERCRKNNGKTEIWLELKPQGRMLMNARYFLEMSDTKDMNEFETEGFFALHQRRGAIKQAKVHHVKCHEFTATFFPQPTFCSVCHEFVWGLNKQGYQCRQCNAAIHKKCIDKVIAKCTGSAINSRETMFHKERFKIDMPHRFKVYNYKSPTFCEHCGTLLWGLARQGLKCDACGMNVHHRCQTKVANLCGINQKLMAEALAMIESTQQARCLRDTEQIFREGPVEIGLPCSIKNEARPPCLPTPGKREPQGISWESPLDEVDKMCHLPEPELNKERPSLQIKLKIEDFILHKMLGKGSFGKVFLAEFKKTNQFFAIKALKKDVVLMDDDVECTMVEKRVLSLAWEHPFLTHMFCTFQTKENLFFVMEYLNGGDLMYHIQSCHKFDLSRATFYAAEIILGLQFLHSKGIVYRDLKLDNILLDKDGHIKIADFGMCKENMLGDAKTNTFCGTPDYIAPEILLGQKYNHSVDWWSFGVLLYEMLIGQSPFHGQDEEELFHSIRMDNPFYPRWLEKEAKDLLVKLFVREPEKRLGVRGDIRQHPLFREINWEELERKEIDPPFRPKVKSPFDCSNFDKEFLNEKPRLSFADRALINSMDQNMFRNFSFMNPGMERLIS
# UniProt P53350, whole entry: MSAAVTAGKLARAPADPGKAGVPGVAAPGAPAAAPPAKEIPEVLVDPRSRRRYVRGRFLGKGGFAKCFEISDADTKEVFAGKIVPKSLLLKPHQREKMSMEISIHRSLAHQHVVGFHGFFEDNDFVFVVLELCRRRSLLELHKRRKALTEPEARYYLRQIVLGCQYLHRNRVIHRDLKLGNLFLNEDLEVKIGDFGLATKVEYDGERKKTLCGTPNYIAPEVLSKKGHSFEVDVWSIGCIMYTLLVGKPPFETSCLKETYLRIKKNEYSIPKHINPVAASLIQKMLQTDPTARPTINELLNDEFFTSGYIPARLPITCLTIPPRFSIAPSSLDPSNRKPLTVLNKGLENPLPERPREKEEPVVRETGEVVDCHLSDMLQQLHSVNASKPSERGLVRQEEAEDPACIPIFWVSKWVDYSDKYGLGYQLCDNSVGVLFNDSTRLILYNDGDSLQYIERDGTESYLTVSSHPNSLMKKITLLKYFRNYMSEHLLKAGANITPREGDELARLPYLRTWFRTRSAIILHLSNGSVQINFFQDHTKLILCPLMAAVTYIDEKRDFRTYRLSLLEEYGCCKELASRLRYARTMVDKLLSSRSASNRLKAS
# UniProt O75116: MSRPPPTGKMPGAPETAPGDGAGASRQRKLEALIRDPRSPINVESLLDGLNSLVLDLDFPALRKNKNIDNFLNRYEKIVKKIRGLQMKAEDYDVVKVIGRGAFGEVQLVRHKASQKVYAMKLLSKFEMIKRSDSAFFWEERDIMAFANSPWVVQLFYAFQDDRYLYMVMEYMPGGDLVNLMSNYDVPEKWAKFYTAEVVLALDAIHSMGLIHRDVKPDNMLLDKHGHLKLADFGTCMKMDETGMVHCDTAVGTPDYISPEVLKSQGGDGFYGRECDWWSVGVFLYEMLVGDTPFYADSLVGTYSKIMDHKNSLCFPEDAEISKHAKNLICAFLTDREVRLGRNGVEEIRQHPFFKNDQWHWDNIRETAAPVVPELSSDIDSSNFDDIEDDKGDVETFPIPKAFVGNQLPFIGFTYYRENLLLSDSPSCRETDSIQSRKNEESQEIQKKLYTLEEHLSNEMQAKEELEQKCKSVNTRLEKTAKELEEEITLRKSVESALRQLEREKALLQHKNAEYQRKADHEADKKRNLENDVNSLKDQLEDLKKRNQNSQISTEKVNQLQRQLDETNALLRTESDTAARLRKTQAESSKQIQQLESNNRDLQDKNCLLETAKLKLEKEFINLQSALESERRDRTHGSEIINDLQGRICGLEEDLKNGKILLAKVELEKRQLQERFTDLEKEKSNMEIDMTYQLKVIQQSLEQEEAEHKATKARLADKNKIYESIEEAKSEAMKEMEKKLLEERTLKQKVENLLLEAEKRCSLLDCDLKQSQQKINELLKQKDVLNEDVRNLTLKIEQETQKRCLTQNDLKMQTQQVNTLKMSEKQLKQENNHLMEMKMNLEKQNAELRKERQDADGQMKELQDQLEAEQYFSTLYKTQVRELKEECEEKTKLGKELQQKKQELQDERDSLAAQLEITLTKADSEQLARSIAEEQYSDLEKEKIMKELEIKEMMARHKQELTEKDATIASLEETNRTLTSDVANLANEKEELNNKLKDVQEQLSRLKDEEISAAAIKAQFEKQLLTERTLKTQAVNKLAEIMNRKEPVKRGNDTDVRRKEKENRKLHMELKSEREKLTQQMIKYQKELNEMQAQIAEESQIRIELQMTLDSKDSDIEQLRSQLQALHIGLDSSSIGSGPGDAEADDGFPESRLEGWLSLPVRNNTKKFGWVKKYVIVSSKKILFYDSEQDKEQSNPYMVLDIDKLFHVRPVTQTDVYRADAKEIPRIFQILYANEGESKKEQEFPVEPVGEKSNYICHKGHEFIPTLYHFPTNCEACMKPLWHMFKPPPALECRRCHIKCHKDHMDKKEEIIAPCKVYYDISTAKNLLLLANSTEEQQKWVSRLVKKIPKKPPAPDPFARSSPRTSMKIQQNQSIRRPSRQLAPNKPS
# UniProt Q15759, whole entry: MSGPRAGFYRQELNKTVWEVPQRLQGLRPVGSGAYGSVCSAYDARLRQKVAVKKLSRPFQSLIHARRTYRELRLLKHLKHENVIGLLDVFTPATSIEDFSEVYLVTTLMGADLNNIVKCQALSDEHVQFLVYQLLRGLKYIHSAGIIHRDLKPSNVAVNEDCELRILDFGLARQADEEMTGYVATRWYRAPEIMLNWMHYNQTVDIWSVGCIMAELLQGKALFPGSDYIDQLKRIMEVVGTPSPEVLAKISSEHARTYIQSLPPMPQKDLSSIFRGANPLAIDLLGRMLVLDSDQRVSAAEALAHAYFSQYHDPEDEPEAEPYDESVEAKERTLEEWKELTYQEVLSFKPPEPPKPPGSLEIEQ
# UniProt Q96SB4, whole entry: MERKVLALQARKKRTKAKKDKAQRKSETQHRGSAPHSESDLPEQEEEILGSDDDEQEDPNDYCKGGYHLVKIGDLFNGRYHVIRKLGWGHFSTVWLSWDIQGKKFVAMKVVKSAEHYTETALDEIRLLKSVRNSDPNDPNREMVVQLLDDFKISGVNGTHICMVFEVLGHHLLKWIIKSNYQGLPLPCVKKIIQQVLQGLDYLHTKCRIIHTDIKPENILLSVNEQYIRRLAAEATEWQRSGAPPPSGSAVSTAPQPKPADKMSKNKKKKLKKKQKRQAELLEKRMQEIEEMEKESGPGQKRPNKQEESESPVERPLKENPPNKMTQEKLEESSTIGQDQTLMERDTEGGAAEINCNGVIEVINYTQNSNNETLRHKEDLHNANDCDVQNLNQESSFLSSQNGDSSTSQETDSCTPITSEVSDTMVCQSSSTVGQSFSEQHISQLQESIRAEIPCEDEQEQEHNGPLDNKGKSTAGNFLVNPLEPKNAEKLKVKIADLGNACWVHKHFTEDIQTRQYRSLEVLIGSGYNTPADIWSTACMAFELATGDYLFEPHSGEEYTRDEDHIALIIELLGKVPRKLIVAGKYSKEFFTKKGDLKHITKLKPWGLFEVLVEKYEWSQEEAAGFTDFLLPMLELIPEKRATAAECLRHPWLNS
# How the values were obtained:
# [1] = molecular target: Protein kinase C zeta type (Homo sapiens) (UniProt Q05513); details: at 1 µM
# [2] = molecular target: Cyclin-dependent kinase 1/cyclin B1 (Homo sapiens) (UniProt P06493+P14635); details: at 1 µM
# [3] = molecular target: Casein kinase II (Homo sapiens) (UniProt P67870+P68400+P19784); details: at 1 µM
# [4] = molecular target: Casein kinase II subunit alpha' (Homo sapiens) (UniProt P19784); details: at 1 µM;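 further: residual kinase activity of CSNK2A2 expressed as percent of untreated control, so lower values mean stronger inhibition, with Jnk Inhibitor II at 100 µM as reference inhibitor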
# [5] = molecular target: Calcium/calmodulin-dependent protein kinase type IV (Homo sapiens) (UniProt Q16566); details: at 1 µM
# [6] = molecular target: T1, Discoidin domain-containing receptor 2 (Homo sapiens) (UniProt Q16832); details: at 1 µM
# T1 sequence (whole entry): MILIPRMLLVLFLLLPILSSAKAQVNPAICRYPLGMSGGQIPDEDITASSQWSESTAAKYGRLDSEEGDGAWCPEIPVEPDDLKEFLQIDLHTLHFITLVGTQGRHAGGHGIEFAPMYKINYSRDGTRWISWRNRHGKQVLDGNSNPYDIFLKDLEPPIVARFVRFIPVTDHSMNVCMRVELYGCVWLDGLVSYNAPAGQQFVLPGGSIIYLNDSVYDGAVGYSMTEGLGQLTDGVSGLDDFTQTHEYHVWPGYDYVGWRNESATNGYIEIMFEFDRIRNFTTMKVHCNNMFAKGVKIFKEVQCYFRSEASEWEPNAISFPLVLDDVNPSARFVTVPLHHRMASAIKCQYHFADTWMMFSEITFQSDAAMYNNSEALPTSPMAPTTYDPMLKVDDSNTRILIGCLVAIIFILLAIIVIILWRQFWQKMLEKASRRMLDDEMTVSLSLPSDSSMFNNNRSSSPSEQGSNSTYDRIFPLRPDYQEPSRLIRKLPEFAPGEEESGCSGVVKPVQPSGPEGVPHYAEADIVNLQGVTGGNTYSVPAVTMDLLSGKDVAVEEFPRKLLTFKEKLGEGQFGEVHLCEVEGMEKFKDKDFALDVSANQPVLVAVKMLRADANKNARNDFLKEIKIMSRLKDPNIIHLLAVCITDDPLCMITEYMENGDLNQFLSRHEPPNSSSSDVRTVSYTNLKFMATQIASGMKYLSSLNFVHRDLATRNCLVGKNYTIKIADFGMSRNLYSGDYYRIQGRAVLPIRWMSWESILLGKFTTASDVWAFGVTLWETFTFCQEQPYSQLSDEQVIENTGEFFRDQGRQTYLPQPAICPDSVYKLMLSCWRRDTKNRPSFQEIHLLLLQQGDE
# [7] = molecular target: Epidermal growth factor receptor (Homo sapiens) (UniProt P00533); details: at 10 µM
# [8] = molecular target: Ephrin type-A receptor 2 (Homo sapiens) (UniProt P29317); details: at 1 µM
# [9] = molecular target: T2, Ephrin type-A receptor 3 (Homo sapiens) (UniProt P29320); details: at 1 µM
# T2 sequence (whole entry): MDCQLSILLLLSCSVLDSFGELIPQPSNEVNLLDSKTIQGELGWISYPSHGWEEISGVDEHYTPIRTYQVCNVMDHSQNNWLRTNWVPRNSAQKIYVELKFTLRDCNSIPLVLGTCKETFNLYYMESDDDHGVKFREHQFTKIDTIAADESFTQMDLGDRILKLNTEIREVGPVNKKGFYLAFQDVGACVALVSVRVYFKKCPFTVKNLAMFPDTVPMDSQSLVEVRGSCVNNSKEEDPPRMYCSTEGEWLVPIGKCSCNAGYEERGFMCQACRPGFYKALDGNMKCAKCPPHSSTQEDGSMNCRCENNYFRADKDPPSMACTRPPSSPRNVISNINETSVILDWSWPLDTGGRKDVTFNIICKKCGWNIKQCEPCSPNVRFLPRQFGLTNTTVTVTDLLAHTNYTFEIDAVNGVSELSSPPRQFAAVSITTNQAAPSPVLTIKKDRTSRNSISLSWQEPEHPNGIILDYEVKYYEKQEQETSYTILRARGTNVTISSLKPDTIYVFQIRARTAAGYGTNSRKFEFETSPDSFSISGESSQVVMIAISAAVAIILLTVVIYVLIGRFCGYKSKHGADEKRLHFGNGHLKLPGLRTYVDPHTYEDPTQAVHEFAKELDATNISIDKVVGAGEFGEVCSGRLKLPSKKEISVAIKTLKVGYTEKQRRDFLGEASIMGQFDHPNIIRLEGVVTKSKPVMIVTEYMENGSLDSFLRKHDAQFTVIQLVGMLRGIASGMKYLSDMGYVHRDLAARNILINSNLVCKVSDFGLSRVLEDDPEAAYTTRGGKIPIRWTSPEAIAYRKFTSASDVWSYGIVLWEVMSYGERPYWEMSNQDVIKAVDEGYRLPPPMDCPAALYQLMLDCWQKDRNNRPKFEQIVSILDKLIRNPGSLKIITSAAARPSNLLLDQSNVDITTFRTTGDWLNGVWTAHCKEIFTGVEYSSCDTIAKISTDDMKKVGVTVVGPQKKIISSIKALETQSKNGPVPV
# [10] = molecular target: Ephrin type-A receptor 4 (Homo sapiens) (UniProt P54764); details: at 1 µM
# [11] = molecular target: Glycogen synthase kinase-3 alpha (Homo sapiens) (UniProt P49840); details: at 1 µM
# [12] = molecular target: Glycogen synthase kinase-3 beta (Homo sapiens) (UniProt P49841); details: at 1 µM
# [13] = molecular target: Protein kinase C zeta type (Homo sapiens) (UniProt Q05513); details: at 10 µM
# [14] = molecular target: Protein kinase C theta type (Homo sapiens) (UniProt Q04759); details: at 1 µM
# [15] = molecular target: T3, Protein kinase C iota type (Homo sapiens) (UniProt P41743); details: at 1 µM
# T3 sequence (whole entry): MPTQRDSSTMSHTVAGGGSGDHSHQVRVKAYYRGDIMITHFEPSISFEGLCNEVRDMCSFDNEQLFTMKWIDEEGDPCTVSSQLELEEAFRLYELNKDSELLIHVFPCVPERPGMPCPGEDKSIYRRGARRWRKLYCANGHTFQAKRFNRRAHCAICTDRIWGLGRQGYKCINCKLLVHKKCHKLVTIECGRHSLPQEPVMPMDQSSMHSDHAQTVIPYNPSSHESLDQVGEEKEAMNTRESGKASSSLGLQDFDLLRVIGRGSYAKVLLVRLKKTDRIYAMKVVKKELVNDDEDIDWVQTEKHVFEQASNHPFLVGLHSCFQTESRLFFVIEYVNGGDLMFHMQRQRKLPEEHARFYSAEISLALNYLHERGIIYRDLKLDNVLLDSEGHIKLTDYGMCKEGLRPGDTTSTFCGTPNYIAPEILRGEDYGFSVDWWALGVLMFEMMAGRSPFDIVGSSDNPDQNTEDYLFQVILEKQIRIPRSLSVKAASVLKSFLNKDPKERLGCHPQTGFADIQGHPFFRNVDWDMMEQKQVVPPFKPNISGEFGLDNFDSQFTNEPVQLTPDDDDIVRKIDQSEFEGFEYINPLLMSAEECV
# [16] = molecular target: T3, Protein kinase C iota type (Homo sapiens); details: at 10 µM
# [17] = molecular target: cGMP-dependent protein kinase 1 (Homo sapiens) (UniProt Q13976); details: at 1 µM
# [18] = molecular target: Serine/threonine-protein kinase pim-2 (Homo sapiens) (UniProt Q9P1W9); details: at 1 µM
# [19] = molecular target: Serine/threonine-protein kinase pim-2 (Homo sapiens) (UniProt Q9P1W9); details: at 10 µM
# [20] = molecular target: Serine/threonine-protein kinase pim-3 (Homo sapiens) (UniProt Q86V86); details: at 1 µM
# [21] = molecular target: Serine/threonine-protein kinase PLK1 (Homo sapiens) (UniProt P53350); details: at 1 µM
# [22] = molecular target: Serine/threonine-protein kinase PLK3 (Homo sapiens) (UniProt Q9H4B4); details: at 1 µM
# [23] = molecular target: Serine/threonine-protein kinase PLK3 (Homo sapiens) (UniProt Q9H4B4); details: at 10 µM
# [24] = molecular target: Rho-associated protein kinase 1 (Homo sapiens) (UniProt Q13464); details: at 1 µM
# [25] = molecular target: Rho-associated protein kinase 2 (Homo sapiens) (UniProt O75116); details: at 1 µM
# [26] = molecular target: Proto-oncogene tyrosine-protein kinase ROS (Homo sapiens) (UniProt P08922); details: at 1 µM
# [27] = molecular target: Mitogen-activated protein kinase 11 (Homo sapiens) (UniProt Q15759); details: at 10 µM
# [28] = molecular target: T4, Mitogen-activated protein kinase 12 (Homo sapiens) (UniProt P53778); details: at 10 µM
# T4 sequence (whole entry): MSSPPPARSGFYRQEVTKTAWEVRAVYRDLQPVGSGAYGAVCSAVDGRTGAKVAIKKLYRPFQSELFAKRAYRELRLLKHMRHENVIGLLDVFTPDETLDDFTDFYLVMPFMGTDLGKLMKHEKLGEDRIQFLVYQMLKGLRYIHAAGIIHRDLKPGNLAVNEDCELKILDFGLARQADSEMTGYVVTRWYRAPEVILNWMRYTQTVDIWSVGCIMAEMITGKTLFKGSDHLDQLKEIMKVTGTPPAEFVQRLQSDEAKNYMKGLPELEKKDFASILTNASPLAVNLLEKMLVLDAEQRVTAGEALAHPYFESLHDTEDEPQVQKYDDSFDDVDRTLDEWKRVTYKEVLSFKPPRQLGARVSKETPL
# [29] = molecular target: SRSF protein kinase 1 (Homo sapiens) (UniProt Q96SB4); details: at 10 µM
# [30] = molecular target: Tyrosine-protein kinase SYK (Homo sapiens) (UniProt P43405); details: at 1 µM
structure (smiles),measurement,setting,value
CCN(CC)CCNC(=O)c1c(C)[nH]c(/C=C2\C(=O)Nc3ccc(Cl)cc32)c1C,residual activity,[1],inactive: 103%
same,residual activity,[2],93%
same,residual activity,[3],86%
same,residual activity,[4],113%
same,residual activity,[5],88%
same,residual activity,[6],94%
same,residual activity,[7],110%
same,residual activity,[8],94%
same,residual activity,[9],94%
same,residual activity,[10],101%
same,residual activity,[11],104%
same,residual activity,[12],87%
same,residual activity,[13],107%
same,residual activity,[14],102%
same,residual activity,[15],inactive: 84%
same,residual activity,[16],79%
same,residual activity,[17],89%
same,residual activity,[18],99%
same,residual activity,[19],92%
same,residual activity,[20],92%
same,residual activity,[21],92%
same,residual activity,[22],inactive: 94%
same,residual activity,[23],95%
same,residual activity,[24],101%
same,residual activity,[25],86%
same,residual activity,[26],106%
same,residual activity,[27],92%
same,residual activity,[28],92%
same,residual activity,[29],94%
same,residual activity,[30],92%

# From ChEMBL document CHEMBL2218924, “A broad activity screen in support of a chemogenomic map for kinase signalling research and drug discovery” (Biochem J, 2013)
